Experiments:
[1] = biological target: T1, Phosphatidylinositol 4,5-bisphosphate 3-kinase catalytic subunit alpha isoform (Homo sapiens, UniProt P42336); test: Inhibition of recombinant PI3Kalpha (unknown origin) using phosphatidyl inositol/n-Octyl-glucoside as substrate measured after 30 mins by KinaseGlo assay
[2] = biological target: T1, Phosphatidylinositol 4,5-bisphosphate 3-kinase catalytic subunit alpha isoform; test: Inhibition of recombinant human myristoylated PI3Kalpha catalytic domain expressed in Rat1 cells assessed as reduction in Akt phosphorylation at […] residue after 1 hr by alpha screen Surefire assay; type: cell-based
[3] = biological target: T2, Phosphatidylinositol 4,5-bisphosphate 3-kinase catalytic subunit delta isoform (Homo sapiens, UniProt O00329); test: Inhibition of PI3Kdelta (unknown origin) using phosphatidyl inositol as substrate measured after 60 mins by Alexa Fluor647-labelled ADP tracer based TR-FRET assay
T2 sequence (O00329 whole entry): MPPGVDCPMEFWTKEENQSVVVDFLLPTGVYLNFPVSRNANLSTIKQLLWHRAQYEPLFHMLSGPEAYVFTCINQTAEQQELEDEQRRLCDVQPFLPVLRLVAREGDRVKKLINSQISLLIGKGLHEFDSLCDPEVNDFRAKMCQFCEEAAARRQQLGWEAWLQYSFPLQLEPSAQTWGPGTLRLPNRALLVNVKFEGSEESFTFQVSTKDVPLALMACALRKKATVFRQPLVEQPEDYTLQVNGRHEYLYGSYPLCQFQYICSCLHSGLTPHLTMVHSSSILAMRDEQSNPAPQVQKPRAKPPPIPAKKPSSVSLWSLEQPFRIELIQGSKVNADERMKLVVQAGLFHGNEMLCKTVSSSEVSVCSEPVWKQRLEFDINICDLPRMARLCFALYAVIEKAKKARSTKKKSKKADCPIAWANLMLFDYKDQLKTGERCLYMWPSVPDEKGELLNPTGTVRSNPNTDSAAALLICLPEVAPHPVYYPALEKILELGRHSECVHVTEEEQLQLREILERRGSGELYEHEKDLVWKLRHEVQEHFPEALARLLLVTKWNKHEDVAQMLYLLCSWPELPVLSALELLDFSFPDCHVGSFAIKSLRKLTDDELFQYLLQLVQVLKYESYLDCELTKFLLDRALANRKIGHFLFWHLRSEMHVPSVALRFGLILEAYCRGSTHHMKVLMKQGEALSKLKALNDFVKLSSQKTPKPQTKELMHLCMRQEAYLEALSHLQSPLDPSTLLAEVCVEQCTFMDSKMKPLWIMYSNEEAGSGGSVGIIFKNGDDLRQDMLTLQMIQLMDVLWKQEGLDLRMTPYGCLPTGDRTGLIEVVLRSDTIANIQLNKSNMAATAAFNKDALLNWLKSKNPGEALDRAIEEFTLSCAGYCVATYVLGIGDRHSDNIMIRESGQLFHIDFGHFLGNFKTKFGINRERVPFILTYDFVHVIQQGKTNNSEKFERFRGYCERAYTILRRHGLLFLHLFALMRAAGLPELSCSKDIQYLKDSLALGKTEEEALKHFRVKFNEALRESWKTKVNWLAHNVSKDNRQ

By UniProt entry, the sequences of proteins in these tests, tags left out.
UniProt P42336, whole entry: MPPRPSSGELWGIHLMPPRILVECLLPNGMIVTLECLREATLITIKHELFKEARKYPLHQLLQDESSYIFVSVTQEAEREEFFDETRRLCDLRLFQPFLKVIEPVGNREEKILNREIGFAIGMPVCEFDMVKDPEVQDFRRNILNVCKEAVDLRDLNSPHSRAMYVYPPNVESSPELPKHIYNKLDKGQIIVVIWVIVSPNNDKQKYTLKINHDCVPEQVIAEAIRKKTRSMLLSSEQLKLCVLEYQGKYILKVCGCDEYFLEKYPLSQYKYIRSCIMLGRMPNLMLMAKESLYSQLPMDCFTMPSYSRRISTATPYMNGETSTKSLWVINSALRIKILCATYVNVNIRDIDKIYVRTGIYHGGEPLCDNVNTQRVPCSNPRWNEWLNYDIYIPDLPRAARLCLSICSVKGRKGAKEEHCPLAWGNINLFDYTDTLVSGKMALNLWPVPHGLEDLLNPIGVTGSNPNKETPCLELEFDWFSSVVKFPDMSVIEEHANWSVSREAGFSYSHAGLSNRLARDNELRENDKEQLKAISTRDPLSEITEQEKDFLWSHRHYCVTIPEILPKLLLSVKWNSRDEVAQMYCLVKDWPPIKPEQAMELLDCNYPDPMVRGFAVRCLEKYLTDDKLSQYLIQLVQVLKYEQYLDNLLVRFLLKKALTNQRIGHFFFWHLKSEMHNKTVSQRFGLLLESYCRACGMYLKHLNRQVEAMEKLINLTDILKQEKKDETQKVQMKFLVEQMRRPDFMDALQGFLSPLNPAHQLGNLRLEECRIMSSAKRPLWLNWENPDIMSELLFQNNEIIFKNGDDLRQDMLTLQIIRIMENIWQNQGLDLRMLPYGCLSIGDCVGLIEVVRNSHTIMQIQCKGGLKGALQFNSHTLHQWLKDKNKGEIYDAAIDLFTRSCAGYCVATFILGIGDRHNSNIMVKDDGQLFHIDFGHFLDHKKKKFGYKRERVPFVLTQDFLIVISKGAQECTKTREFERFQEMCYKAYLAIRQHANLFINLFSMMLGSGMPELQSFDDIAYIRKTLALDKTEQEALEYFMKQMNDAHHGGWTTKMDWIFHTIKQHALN

[4] = biological target: T2, Phosphatidylinositol 4,5-bisphosphate 3-kinase catalytic subunit delta isoform; test: Inhibition of recombinant human myristoylated PI3Kdelta catalytic domain expressed in Rat1 cells assessed as reduction in Akt phosphorylation at […] residue after 1 hr by alpha screen Surefire assay; type: cell-based
[5] = biological target: T2, Phosphatidylinositol 4,5-bisphosphate 3-kinase catalytic subunit delta isoform; test: Inhibition of PI3Kdelta in anti-CD3/CD28 stimulated human PBMC derived CD4-positive T cells assessed as reduction in T cell differentiation to Th2 cells by measuring IL-13 level after 72 hrs by ELISA
[6] = biological target: T2, Phosphatidylinositol 4,5-bisphosphate 3-kinase catalytic subunit delta isoform; test: Inhibition of PI3Kdelta in anti-CD3/CD28 stimulated human PBMC derived CD4-positive T cells assessed as reduction in T cell differentiation to Th17 cells by measuring IL-17A level after 72 hrs by ELISA
[7] = species: Homo sapiens; test: Selectivity ratio of IC50 for recombinant human myristoylated PI3Kalpha catalytic domain expressed in Rat1 cells to IC50 for recombinant human myristoylated PI3Kdelta catalytic domain expressed in Rat1 cells; type: cell-based

SMILES | IC50 [1] [nM] | IC50 [2] [nM] | IC50 [3] [nM] | IC50 [4] [nM] | IC50 [5] [nM] | IC50 [6] [nM] | Ratio IC50 [7]
COc1ncc(N2CCc3ncnc(N[C@H]4CCN(C(=O)C5CCOCC5)C4)c3C2)cc1C | 373 | 6190 | – | – | – | – | –
CCC(=O)N1CC[C@H](Nc2ncnc3c2CN(c2cnc(OC)c(C(F)(F)F)c2)CC3)C1 [LENIOLISIB] | – | – | 11 | 56 | 95 | 73 | 30

Source: ChEMBL document CHEMBL4130456, “Discovery of CDZ173 (Leniolisib), Representing a Structurally Novel Class of PI3K Delta-Selective Inhibitors” (ACS Med Chem Lett, 2017)
